# System: rat adjuvant-induced arthritis
# Details: in vivo, 0.025 mg/kg
structure (smiles),measurement,value
"CC(C)[C@]12O[C@H]1C1O[C@]13[C@]1(O[C@H]1C[C@H]1C4=C(CC[C@@]13C)C(=O)OC4)[C@@H]2OP(=O)([O-])[O-].[Na+].[Na+] (stereo partly drawn) [WDY7, disodium triptolide-14-β-phosphate]",safety coefficient LD50/effective dose,32
